This is an account of results in patent US8778919B2, “Cyclic anilino—pyridinotriazines” (Janssen Pharmaceutica NV, priority 2005, dated 2014).

Protein sequences, listed by entry. Tags and fused reporters are not part of them. Lines headed by an entry give the natural chain unless they say otherwise; changes in a name come on top.
UniProt P49840, whole entry: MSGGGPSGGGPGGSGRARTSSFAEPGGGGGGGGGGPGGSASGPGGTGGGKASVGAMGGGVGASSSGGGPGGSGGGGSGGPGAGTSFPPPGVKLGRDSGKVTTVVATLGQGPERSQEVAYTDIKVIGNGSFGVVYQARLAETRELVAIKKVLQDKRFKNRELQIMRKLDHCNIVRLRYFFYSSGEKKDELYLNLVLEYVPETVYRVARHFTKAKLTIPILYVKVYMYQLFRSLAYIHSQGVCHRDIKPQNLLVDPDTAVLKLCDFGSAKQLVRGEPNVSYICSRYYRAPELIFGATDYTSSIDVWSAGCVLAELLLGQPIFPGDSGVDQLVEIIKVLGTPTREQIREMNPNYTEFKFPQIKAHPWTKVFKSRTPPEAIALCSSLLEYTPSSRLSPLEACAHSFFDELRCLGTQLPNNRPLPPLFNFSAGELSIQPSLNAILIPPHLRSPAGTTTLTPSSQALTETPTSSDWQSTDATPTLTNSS
UniProt Q00534, whole entry: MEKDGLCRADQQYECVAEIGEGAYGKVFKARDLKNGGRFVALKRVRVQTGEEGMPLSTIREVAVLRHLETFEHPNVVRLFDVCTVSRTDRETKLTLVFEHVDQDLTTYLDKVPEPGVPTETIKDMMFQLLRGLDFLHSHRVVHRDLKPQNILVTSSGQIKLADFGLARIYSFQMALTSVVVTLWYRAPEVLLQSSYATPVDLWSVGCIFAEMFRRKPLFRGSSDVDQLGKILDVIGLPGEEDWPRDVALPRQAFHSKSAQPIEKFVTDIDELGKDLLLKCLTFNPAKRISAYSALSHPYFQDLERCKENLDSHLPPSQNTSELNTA
UniProt P06493, whole entry: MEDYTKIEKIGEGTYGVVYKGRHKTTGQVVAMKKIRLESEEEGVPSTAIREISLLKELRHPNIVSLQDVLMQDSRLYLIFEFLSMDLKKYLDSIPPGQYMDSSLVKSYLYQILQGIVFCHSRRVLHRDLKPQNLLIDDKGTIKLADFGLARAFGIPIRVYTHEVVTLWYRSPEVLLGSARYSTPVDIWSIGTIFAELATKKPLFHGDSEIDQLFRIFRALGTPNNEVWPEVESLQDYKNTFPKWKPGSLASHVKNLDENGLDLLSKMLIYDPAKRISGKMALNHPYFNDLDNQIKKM
UniProt Q00535, whole entry: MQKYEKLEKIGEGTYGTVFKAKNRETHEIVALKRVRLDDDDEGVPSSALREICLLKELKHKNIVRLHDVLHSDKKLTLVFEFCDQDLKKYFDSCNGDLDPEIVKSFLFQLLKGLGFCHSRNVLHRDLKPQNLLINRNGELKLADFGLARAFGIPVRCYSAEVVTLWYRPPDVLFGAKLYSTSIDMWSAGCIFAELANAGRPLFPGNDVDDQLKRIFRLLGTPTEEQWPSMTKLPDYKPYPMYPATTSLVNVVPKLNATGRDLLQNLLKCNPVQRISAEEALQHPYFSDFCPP
UniProt P49841, whole entry: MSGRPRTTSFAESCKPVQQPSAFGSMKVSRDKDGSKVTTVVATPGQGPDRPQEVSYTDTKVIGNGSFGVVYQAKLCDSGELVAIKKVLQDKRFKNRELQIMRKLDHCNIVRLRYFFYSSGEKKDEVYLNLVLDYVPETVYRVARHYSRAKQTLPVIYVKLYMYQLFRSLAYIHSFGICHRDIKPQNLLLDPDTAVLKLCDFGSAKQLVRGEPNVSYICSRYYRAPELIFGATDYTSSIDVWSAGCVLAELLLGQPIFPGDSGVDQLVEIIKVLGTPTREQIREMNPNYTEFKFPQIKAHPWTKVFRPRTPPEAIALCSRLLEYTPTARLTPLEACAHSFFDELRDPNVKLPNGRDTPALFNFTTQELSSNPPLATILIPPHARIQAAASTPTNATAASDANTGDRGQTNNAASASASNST
UniProt P50613, whole entry: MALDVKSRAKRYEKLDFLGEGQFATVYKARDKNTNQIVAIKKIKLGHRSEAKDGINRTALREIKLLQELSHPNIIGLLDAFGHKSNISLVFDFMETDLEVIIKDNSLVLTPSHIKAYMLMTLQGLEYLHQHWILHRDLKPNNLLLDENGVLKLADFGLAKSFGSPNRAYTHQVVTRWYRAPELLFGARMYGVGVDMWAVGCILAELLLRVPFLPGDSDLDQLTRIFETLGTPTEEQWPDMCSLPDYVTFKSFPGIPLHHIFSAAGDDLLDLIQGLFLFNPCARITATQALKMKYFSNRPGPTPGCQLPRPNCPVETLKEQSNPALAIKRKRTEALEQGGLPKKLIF
UniProt P07947, whole entry: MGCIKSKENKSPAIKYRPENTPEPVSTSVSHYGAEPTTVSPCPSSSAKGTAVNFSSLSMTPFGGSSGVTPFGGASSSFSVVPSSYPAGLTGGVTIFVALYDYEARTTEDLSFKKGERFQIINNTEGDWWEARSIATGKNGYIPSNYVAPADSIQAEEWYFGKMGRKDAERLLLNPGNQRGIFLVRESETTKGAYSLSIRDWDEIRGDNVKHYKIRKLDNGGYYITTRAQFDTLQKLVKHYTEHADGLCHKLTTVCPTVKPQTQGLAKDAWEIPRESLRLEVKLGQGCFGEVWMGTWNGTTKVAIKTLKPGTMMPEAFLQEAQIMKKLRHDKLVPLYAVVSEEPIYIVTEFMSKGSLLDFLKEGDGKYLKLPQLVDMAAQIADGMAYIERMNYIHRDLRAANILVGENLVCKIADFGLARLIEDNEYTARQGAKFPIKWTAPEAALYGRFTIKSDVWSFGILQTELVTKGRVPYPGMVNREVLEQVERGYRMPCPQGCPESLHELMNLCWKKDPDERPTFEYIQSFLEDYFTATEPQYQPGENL
UniProt O14965, whole entry: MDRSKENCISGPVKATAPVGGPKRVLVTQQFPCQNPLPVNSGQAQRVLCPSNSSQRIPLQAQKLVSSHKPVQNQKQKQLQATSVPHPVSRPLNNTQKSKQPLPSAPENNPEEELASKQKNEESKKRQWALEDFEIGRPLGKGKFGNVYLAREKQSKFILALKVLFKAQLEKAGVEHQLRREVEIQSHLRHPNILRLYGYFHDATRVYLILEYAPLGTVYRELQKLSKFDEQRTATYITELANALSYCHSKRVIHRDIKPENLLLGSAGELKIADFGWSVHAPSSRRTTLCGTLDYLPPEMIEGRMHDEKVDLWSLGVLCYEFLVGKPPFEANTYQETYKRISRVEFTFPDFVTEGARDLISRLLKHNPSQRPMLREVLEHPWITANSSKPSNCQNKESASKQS
UniProt Q00526, whole entry: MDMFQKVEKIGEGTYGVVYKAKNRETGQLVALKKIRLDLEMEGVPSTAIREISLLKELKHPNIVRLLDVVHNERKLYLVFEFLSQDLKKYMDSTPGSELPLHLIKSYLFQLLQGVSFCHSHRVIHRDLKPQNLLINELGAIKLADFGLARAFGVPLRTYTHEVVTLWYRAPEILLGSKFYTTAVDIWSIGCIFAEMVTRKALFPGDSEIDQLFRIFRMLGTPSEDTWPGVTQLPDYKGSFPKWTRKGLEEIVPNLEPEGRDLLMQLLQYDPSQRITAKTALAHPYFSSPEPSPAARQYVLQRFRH
UniProt P30281, whole entry partner: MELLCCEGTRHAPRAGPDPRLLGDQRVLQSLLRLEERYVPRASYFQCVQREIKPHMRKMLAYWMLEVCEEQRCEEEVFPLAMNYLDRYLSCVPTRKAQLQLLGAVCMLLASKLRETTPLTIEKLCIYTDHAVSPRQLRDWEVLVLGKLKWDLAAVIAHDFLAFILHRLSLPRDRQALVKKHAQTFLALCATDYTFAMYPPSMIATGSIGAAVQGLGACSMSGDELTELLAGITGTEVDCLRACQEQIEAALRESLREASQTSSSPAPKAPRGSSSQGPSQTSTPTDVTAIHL
UniProt P14635, whole entry partner: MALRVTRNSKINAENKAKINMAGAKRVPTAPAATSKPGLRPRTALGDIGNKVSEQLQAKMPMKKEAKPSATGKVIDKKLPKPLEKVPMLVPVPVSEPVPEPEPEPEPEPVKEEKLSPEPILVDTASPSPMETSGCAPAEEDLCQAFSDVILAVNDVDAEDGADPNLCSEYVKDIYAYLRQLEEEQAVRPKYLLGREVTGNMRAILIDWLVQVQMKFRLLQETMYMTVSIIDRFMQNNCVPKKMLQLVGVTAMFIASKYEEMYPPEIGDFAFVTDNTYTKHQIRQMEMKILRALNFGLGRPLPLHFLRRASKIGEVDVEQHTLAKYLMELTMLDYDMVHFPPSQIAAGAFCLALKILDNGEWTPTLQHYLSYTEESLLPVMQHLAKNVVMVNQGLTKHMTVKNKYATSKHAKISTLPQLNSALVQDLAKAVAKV
UniProt Q15078, whole entry partner: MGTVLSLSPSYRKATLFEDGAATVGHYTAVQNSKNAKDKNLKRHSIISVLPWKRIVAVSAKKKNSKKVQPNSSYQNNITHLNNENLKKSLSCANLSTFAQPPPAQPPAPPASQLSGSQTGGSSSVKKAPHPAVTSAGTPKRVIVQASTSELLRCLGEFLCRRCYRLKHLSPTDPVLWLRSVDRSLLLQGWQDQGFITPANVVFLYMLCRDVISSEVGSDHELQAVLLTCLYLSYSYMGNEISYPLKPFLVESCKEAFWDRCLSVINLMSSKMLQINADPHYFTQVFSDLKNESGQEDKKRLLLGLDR
UniProt P51946, whole entry partner: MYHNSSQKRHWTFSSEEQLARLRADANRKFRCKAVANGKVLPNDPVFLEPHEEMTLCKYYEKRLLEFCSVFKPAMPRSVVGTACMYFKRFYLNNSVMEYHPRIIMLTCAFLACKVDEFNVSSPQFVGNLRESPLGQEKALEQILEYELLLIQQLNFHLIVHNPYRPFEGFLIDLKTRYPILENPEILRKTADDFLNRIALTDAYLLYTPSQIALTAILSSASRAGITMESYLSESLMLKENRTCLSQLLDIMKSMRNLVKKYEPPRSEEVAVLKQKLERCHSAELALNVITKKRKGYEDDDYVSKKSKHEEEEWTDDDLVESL
UniProt P51948, whole entry partner: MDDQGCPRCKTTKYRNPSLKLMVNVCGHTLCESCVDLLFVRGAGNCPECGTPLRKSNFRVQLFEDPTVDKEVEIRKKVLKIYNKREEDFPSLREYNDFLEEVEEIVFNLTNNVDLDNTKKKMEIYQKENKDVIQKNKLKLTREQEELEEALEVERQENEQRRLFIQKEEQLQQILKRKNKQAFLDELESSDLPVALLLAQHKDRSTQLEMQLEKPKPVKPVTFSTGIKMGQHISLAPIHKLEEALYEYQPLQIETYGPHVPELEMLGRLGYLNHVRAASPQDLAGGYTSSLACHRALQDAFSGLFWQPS
UniProt P24864, whole entry partner: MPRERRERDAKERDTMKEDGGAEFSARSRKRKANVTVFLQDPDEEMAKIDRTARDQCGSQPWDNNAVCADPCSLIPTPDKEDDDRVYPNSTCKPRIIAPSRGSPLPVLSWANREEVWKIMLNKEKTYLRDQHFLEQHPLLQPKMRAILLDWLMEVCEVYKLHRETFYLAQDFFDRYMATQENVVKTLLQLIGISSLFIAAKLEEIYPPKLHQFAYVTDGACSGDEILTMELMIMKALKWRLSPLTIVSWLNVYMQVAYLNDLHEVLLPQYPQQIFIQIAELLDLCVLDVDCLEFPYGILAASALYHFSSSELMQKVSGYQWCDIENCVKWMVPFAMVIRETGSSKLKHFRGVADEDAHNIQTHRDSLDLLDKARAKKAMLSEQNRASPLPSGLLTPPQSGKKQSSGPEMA

Structures are written as SMILES.

The target of one test is GSK-3α (Homo sapiens, UniProt P49840). Kind of test: GSK-3 kinase assay (C1), GSK-3α. Conditions: 1 μM ATP. On the procedure: (§1) In vitro GSK-3 assays were performed at room temperature in a 100 μl reaction volume of 25 mM Tris (pH 7.4) containing 10 mM MgCl2.6H2O, 1 mM DTT, 0.1 mg/ml BSA, 5% glycerol, 5.7 ng/μl GSK-3β or 0.25 ng/μl GSK-3α, 5 μM biotinylated CREB peptide, 1 μM ATP, 0.85 μCi/ml ^33P-ATP and a suitable amount of a test compound. After one hour, the reaction was terminated by adding 70 μl of Stop mix (0.1 mM ATP, 5 mg/ml streptavidin coated PVT SPA beads, pH 11.0). The beads were allowed to settle overnight and the radioactivity attached to the beads was counted in a microtiter plate scintillation counter and compared with the results obtained in a control experiment (without the presence of a test compound) in order to determine the percentage of GSK-3 inhibition. The IC50 value, i.e. the concentration (M) of the test compound at which 50% of GSK-3 is inhibited, was calculated from the dose response curve obtained by performing the above-described GSK-3 assay in the presence of different amounts of the test compound. Score 1=pIC50 value<6, Score 2=pIC50 value from 6-7, Score 3=pIC50 value from 7-8, Score 4=pIC50 value>8.

For a further test, the target named is CDK6/cyclinD3 human (Homo sapiens, UniProt Q00534). Kind of test: Kinase profiling C3.7 CDK6/cyclinD3 human. Conditions: CDK6/cyclinD3, test concentration of 10^−6 M. On the procedure: (§2) The in vitro inhibition of a panel of kinases was assessed using either the glass-fiber filter technology as described by Davies, S. P. et al., Biochem J. (2000), 351; p. 95-105. In the glass-fiber filter technology the activity of the kinase of interest is measured using an appropriate substrate that is incubated with the aforementioned kinase protein in the presence of (^33P) radiolabeled ATP. (^33P) Phosporylation of the substrate is subsequently measured as radioactivity bound on a glassfiber-filter.
(§3) All kinases are pre-diluted to a 10× working concentration prior to addition into the assay. The composition of the dilution buffer for each kinase is detailed below.
(§4) All substrates are dissolved and diluted to working stocks in de-ionised water, apart from histone H1 that is stored in 10× working stock in 20 mM MOPS pH 7.4.
In a final reaction volume of 25 μl, CDK6/cyclinD3 human (5-10 mU) is incubated with 8 mM MOPS pH 7.0, 0.2 mM EDTA, 0.1 mg/ml histone H1, 10 mM MgAcetate and [γ-^33P-ATP] (specific activity approx. 500 cpm/pmol, concentration as required). The reaction is initiated by the addition of the MgATP mix. After incubation for 40 minutes at room temperature, the reaction is stopped by the addition of 5 μl of a 3% phosphoric acid solution. […]

A further test addresses CDK1/cyclinB (h) (Homo sapiens, UniProt P06493). Kind of test: Kinase profiling C3.2 CDK1/cyclinB human. Conditions: test concentration of 10^−6 M. Here is the method: as §2, §3, §4
In a final reaction volume of 25 μl, CDK1/cyclinB (h) (5-10 mU) is incubated with 8 mM MOPS pH 7.0, 0.2 mM EDTA, 0.1 mg/ml histone H1, 10 mM MgAcetate and [γ-^33P-ATP] (specific activity approx. 500 cpm/pmol, concentration as required). The reaction is initiated by the addition of the MgATP mix. After incubation for 40 minutes at room temperature, the reaction is stopped by the addition of 5 μl of a 3% phosphoric acid solution. […]

In another test the target is CDK5/p35 human (Homo sapiens, UniProt Q00535). Kind of test: Kinase profiling C3.6 CDK5/p35 human. To be noted: CDK5/p35, test concentration of 10^−6 M. Here is the method: as §2, §3, §4
In a final reaction volume of 25 μl, CDK5/p35 human (5-10 mU) is incubated with 8 mM MOPS pH 7.0, 0.2 mM EDTA, 0.1 mg/ml histone H1, 10 mM MgAcetate and [γ-^33P-ATP] (specific activity approx. 500 cpm/pmol, concentration as required). The reaction is initiated by the addition of the MgATP mix. After incubation for 40 minutes at room temperature, the reaction is stopped by the addition of 5 μl of a 3% phosphoric acid solution. […]

In a further test the target is GSK-3β (Homo sapiens, UniProt P49841). Kind of test: GSK-3 kinase assay (C1), GSK-3β. Conditions: 1 μM ATP. Here is the method:
as §1

Another test has as its target CDK7/cyclinH/MAT1 (h) (Homo sapiens, UniProt P50613). Nature of the test: Kinase profiling C3.8 CDK7/cyclinH/MAT1 human. Conditions: CDK7/cyclinH/MAT1, test concentration of 10^−6 M. Here is the method: as §2, §3, §4
In a final reaction volume of 25 μl, CDK7/cyclinH/MAT1 (h) (5-10 mU) is incubated with 8 mM MOPS pH 7.0, 0.2 mM EDTA, 500 μM peptide, 10 mM MgAcetate and [γ-^33P-ATP] (specific activity approx. 500 cpm/pmol, concentration as required). The reaction is initiated by the addition of the MgATP mix. After incubation for 40 minutes at room temperature, the reaction is stopped by the addition of 5 μl of a 3% phosphoric acid solution. […]

Another test concerns the target Yes (h) (Homo sapiens, UniProt P07947). Nature of the test: Kinase profiling C3.10 Yes human. To be noted: test concentration of 10^−6 M. Here is the method:
as §2, §3, §4
In a final reaction volume of 25 μl, Yes (h) (5-10 mU) is incubated with 8 mM MOPS pH 7.0, 0.2 mM EDTA, 0.1 mg/ml poly(Glu, Tyr) 4:1, 10 mM MgAcetate and [γ-^33P-ATP] (specific activity approx. 500 cpm/pmol, concentration as required). The reaction is initiated by the addition of the MgATP mix. After incubation for 40 minutes at room temperature, the reaction is stopped by the addition of 5 μl of a 3% phosphoric acid solution. […]

A further test has as its target CDK2/cyclinA (h) (Homo sapiens, UniProt P24941). Nature of the test: Kinase profiling C3.3 CDK2/cyclinA human. Conditions: test concentration of 10^−6 M. Here is the method:
as §2, §3, §4
In a final reaction volume of 25 μl, CDK2/cyclinA (h) (5-10 mU) is incubated with 8 mM MOPS pH 7.0, 0.2 mM EDTA, 0.1 mg/ml histone H1, 10 mM MgAcetate and [γ-^33P-ATP] (specific activity approx. 500 cpm/pmol, concentration as required). The reaction is initiated by the addition of the MgATP mix. After incubation for 40 minutes at room temperature, the reaction is stopped by the addition of 5 μl of a 3% phosphoric acid solution. […]

A further test concerns the target Aurora-A (h) (Homo sapiens, UniProt O14965). Nature of the test: Kinase profiling C3.1 Aurora-A human. To be noted: test concentration of 10^−6 M. On the procedure:
as §2, §3, §4
In a final reaction volume of 25 μl, Aurora-A (h) (5-10 mU) is incubated with 8 mM MOPS pH 7.0, 0.2 mM EDTA, 200 μM LRRASLG (Kemptide), 10 mM MgAcetate and [γ-^33P-ATP] (specific activity approx. 500 cpm/pmol, concentration as required). The reaction is initiated by the addition of the MgATP mix. After incubation for 40 minutes at room temperature, the reaction is stopped by the addition of 5 μl of a 3% phosphoric acid solution. […]

A further test deals with CDK3/cyclinE (h) (Homo sapiens, UniProt Q00526). Kind of test: Kinase profiling C3.5 CDK3/cyclinE human. Conditions: test concentration of 10^−6 M. Here is the method: as §2, §3, §4
In a final reaction volume of 25 μl, CDK3/cyclinE (h) (5-10 mU) is incubated with 8 mM MOPS pH 7.0, 0.2 mM EDTA, 0.1 mg/ml histone H1, 10 mM MgAcetate and [γ-^33P-ATP] (specific activity approx. 500 cpm/pmol, concentration as required). The reaction is initiated by the addition of the MgATP mix. After incubation for 40 minutes at room temperature, the reaction is stopped by the addition of 5 μl of a 3% phosphoric acid solution. […]

The next test addresses CDK2/cyclinE (h) (Homo sapiens, UniProt P24941). Nature of the test: Kinase profiling C3.4 CDK2/cyclinE human. To be noted: test concentration of 10^−6 M. Here is the method:
as §2, §3, §4
In a final reaction volume of 25 μl, CDK2/cyclinE (h) (5-10 mU) is incubated with 8 mM MOPS pH 7.0, 0.2 mM EDTA, 0.1 mg/ml histone H1, 10 mM MgAcetate and [γ-^33P-ATP] (specific activity approx. 500 cpm/pmol, concentration as required). The reaction is initiated by the addition of the MgATP mix. After incubation for 40 minutes at room temperature, the reaction is stopped by the addition of 5 μl of a 3% phosphoric acid solution. […]

A further test addresses cSRC (h) (Homo sapiens, UniProt P12931). Nature of the test: Kinase profiling C3.9 cSRC human. Conditions: test concentration of 10^−6 M. Here is the method:
as §2, §3, §4
In a final reaction volume of 25 μl, cSRC (h) (5-10 mU) is incubated with 8 mM MOPS pH 7.0, 0.2 mM EDTA, 250 μM KVEKIGEGTYGVVYK (Cdc2 peptide), 10 mM MgAcetate and [γ-^33P-ATP] (specific activity approx. 500 cpm/pmol, concentration as required). The reaction is initiated by the addition of the MgATP mix. After incubation for 40 minutes at room temperature, the reaction is stopped by the addition of 5 μl of a 3% phosphoric acid solution. […]

The subject of the next test is Chang cells. Kind of test: GSK-3 cellular assay (C2): 14C-D-glucose incorporation into glycogen. To be noted: increase in D-glucose incorporation into glycogen, test concentration of 10^−6 M. Here is the method: Test compounds were tested for their ability to increase the incorporation of ^14C-D-glucose into glycogen in living cells. To do this, Chang cells (360,000 cells/well) were cultured in 0.5 ml of MEM Rega 3 medium supplemented with 10% fetal calf serum, 1% L-glutamine and 2% sodium carbonate. After 3 days, cells were washed with 0.5 ml of phosphate-buffered saline and overlayed with 1 ml of serum- and glucose-free DMEM medium. Then, 2 μl of compound in DMSO and 50 μl substrate (3 mM glucose and 0.5 μCi ^14C-D-glucose were added and the cultures were incubated for 90 min. Cells were then extracted with 0.5 ml of 20% KOH for 60 min at 37° C. and the cell lysates were transferred to 10 ml tubes containing 300 μl of 1 mg/ml glycogen as […]. Following the addition of 2 ml ethanol, total glycogen was precipitated overnight at −20° C. and the precipitates were recovered by centrifugation. Precipitates were then resuspended in 1 ml of water and transferred to scintillation counter vials. and the amount of ^14C-D-glucose incorporation into glycogen was measured by scintillation counting. Scores for the compounds according to the invention, were obtained at a test concentration of 10^−6 M. Score 1=10-30% increase, Score 2=30-60% increase, Score 3=60-80% increase and Score 4=>80% increase in D-glucose incorporation.

On to `O=C1NCCCNc2cccc(c2)-c2ncnc(n2)Nc2cccc(c2)CN[C@H]1Cc1ccccc1`, for which the “C1 Score α” value at GSK-3α was 3 (Score 3=pIC50 value from 7-8).

Turning to `CN1CCCc2cc(ccn2)-c2ncnc(n2)Nc2cccc(c2)CCNC(=O)C1`, at CDK6/cyclinD3 human, the C3.7 score is given as 2 (Score 2 = 30-60% inhibition). Besides, the C3.2 score at CDK1/cyclinB (h) is given as 4 (Score 4 = >80% inhibition). Besides, the C3.6 score on CDK5/p35 human is given as 4 (Score 4 = >80% inhibition). For the same compound, the “C1 Score β” value at GSK-3β was 4 (Score 4=pIC50 value>8). Further, the C3.8 score at CDK7/cyclinH/MAT1 (h) is listed as 4 (Score 4 = >80% inhibition). Also, on Yes (h), the C3.10 score is 1 (Score 1 = 10-30% inhibition). Moreover, the C3.3 score on CDK2/cyclinA (h) is listed as 4 (Score 4 = >80% inhibition). Further, the C3.1 score at Aurora-A (h) is listed as 4 (Score 4 = >80% inhibition). In addition, the “C1 Score α” value at GSK-3α was 4 (Score 4=pIC50 value>8). Also, the C3.5 score at CDK3/cyclinE (h) is recorded as 4 (Score 4 = >80% inhibition). On CDK2/cyclinE (h), the C3.4 score is recorded as 4 (Score 4 = >80% inhibition). On cSRC (h), the C3.9 score is on record as 2 (Score 2 = 30-60% inhibition). In addition, the “C2 Score” value in the test with Chang cells was 4 (Score 4=>80% increase in D-glucose incorporation).
